Results on one compound are retold here after patent US5846562A, “Oral composition of fumagillol derivative” (Takeda Chemical Industries, Ltd., priority 1996, dated 1998).

The conditions of this data set: rat, in vivo, po, 100 mg/kg, 15 min. From the text:
Blood was collected from the caudal vein periodicaly to determine the plasma concentration of metabolite.

In the case of `CO[C@@H]1[C@H](OC(=O)NC(=O)CCl)CC[C@]2(CO2)[C@H]1[C@@]1(C)O[C@@H]1CC=C(C)C` [Compound A, 6-O-(N-chloroacetylcarbamoyl)fumagillol], the “Plasma concentration of metabolite” value is 15.6 ± 1.6 ng/mL.
